Laboratory results taken from US10634665B2 (priority 2014, dated 2020).

Tested on: lung organ device
Test: Evaluation of non-toxic and toxic compounds in the lung organ device
Settings: low doses

With beclonethasone diproprionate the organ damage was “no organ damage”.
